## scFv variants of Ab-14 (light chain) against a SARS-CoV-2 spike peptide

Target peptide (SARS-CoV-2 spike, HR2 region): PDVDLGDISGINAS

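The variants were designed computationally from a first round of random CDR variants and then made and measured. Group labels follow the data file (En: ensemble of fine-tuned language models; GP: Gaussian process model; HC: hill climbing; Gen: genetic algorithm; Gibbs: Gibbs sampling; a sequence that several methods proposed may carry one label only). Affinity was read by AlphaSeq, a pooled yeast mating assay with surface-displayed partners. After mating in shaken culture at 30 °C for 16 h, diploids were selected and their barcode pairs sequenced. Scores were corrected for input abundance and mapped to Kd with protein pairs of known affinity run in the same pool. Each pool was mated in six replicate cultures.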

The variants keep the heavy chain, the linker and the frameworks of Ab-14 (scFv order VH, a 15-residue (Gly4Ser)3 linker, VL).
VH: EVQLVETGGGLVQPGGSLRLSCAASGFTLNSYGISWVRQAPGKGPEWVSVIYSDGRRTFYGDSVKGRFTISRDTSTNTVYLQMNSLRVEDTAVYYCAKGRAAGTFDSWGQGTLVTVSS
VL: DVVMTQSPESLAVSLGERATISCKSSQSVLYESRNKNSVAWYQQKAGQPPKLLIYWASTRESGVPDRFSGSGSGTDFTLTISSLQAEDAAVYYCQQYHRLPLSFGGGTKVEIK

Variants are written as CDR1, CDR2 and CDR3 of the light chain (limits as in the source). Parent: KSSQSVLYESRNKNSVA, WASTRES, QQYHRLPLS. This list holds designs with more than six substitutions. Kd is apparent (estimated from mating counts) and averaged on the log scale over replicates with a signal. Smaller is tighter. A sequence measured in both rounds can read differently, since the two assays cover different ranges. Empty control strains, which show no peptide, gave a signal in 4% of pairings with all light chain designs; the median was 430 nM and 95% of these signals were weaker than 38 nM. No background was subtracted. The parent sequence was in this pool as ten entries: three were never detected, three once, and four in most replicates, with averages from 2.2 nM to 240 nM. In the paper, a design with two or fewer of six values counts as a poor binder.

Variant KVSQSMWYESRMKNSVA, NASYREQ, QQYHRLPLQ [GP_Gibbs] gave 1.1 nM (6 of 6 replicates).
Variant KLSCSEGMESRNSNSVA, HASKRES, QDYHRLPLS [GP_Gibbs] gave 8.9 nM (6 of 6 replicates).
Variant KIGMVLNQLLHQKNNVA, DLVERED, QQYFRLPLS [En_Gen] gave 1.7 nM (6 of 6 replicates).
Variant KLSMHYRYESENKNSIA, ELVTRMS, QQYHRLPLS [En_HC] gave 26 nM (6 of 6 replicates).
Variant KMSESELYESQNSNNVA, HASQRMS, QQYHRLPLS [GP_Gibbs] gave 1.9 nM (6 of 6 replicates).
Variant KLPQEDWYQSRMKNSVA, DASTRES, QQYHRLPLS [GP_Gibbs] gave 540 pM (6 of 6 replicates).
Variant KIMQSLNYESFNKDSVA, GQETRER, QSYHRLPLS [En_HC] gave 16 nM (6 of 6 replicates).
Variant MMGMTVTNQSNMIQNVA, DMNERFA, QQYFQLPLS [En_Gibbs] gave 6.2 nM (6 of 6 replicates).
Variant AVSIQHMENTAIWNAIA, DTSLRAH, QQYYHLPLC [En_Gibbs] gave 22 nM (6 of 6 replicates).
Variant KLSQSVRMEQFNKNSVA, ENSTREA, QDYHRLPLS [En_HC] gave 430 nM (5 of 6 replicates).
Variant TLDNHQAGYYQKNNNIA, EMNMRRY, QQYGILPLS [En_Gibbs] gave 27 nM (6 of 6 replicates).
Variant SFPESLPQQQTNVNAVA, GAQHTAV, QQYGRLPLT [En_Gibbs] gave 1.0 nM (6 of 6 replicates).
Variant MISQVMNTLTRQGNNVA, DLQNRED, QQYFRLPLS [En_Gen] gave 23 nM (6 of 6 replicates).
Variant TISESWMYESRNKNNVA, EESTKLD, QSYFRLPLS [En_HC] gave 5.3 nM (6 of 6 replicates).
Variant TISQSFMMENQFKNSVA, QAQTRES, QCYDRLPLS [En_HC] gave 70 nM (5 of 6 replicates).
Variant HMQNESQQDSRQWNNVA, ETTVVET, QQYATLPLT [En_Gibbs] gave 56 nM (5 of 6 replicates).
Variant VLSGMTNQAMSKHNSVA, NVTMRPD, QQYHRLPLS [En_Gen] gave 5.6 nM (6 of 6 replicates).
Variant KLENSELYQSRNKNSVA, NASTRYS, QQYHRLPLS [GP_Gibbs] gave 630 pM (6 of 6 replicates).
Variant MLDQMDGQMGGNTNNIA, GVVEHRI, QQYHRLPLS [En_Gibbs] gave 520 nM (4 of 6 replicates).
Variant KLSQITGHLSVSKNNVA, EMETREN, QQYDRLPLA [En_Gen] gave 4.1 nM (6 of 6 replicates).
Variant HMSMLTLQGMRMRNSVA, QMTTREN, QQYDHLPLS [En_Gen] gave 11 nM (6 of 6 replicates).
Variant QMKDSLSQGIYRQDSVA, STDIRVL, QQYHHLPLS [En_Gibbs] gave 7.7 nM (6 of 6 replicates).
Variant HIDTANRGEDMKQDPIA, QADIREQ, QQYFQLPLI [En_Gibbs] gave 15 nM (6 of 6 replicates).
Variant KMSQSELYESQNSNNVA, HASQRMS, QQYHRLPLS [GP_Gibbs] gave 510 pM (6 of 6 replicates).
Variant KVSMSVNYGQRNKNSVA, QASQRES, QQYHRLPLS [GP_Gibbs] gave 900 pM (6 of 6 replicates).
Variant TISTMMRYESSLKNAIA, NAQTRES, QQYHRLPIS [En_HC] gave 120 nM (1 of 6 replicates).
Variant KLTMITGLEKVQGNNVA, EMETREK, QQYNRLPLA [En_Gen] gave 3.4 nM (6 of 6 replicates).
Variant KLSQSDLYESRNKNNVA, NASLREM, QDYHRLPLS [GP_Gibbs] gave 680 pM (6 of 6 replicates).
Variant KLQMSMPYESRMKNSVA, HASVRES, QQYHRLPLS [GP_Gibbs] gave 5.3 nM (6 of 6 replicates).
Variant KSSISSLYEERNDNSVA, NASQREH, QQYHRLPLS [GP_Gibbs] gave 7.4 nM (6 of 6 replicates).
Variant KISYMGEYFSTQHSAIA, QASTREQ, QQYHRLPLS [En_HC] gave 1.9 nM (6 of 6 replicates).
Variant SLYDATGMESRNKNPIA, DVSTRPS, QQYDRLPLS [En_HC] gave 1.1 nM (6 of 6 replicates).
Variant MFSQGVMVGWLTRNSVA, NSSTRES, QQYHRLPLS [En_HC] gave 8.6 nM (6 of 6 replicates).
Variant KQSQSVLYGERNGNSVA, NASYRLS, QQYHRLPLS [GP_Gibbs] gave 5.2 nM (6 of 6 replicates).
Variant QFDTNLQYMGANKNSVA, EMTERTT, QQYHRLPIE [En_Gibbs] gave 14 nM (6 of 6 replicates).

The first 4 entries again:

KVSQSMWYESRMKNSVA, NASYREQ, QQYHRLPLQ [GP_Gibbs]: 1.1 nM (6 of 6 replicates).
KLSCSEGMESRNSNSVA, HASKRES, QDYHRLPLS [GP_Gibbs]: 8.9 nM (6 of 6 replicates).
KIGMVLNQLLHQKNNVA, DLVERED, QQYFRLPLS [En_Gen]: 1.7 nM (6 of 6 replicates).
KLSMHYRYESENKNSIA, ELVTRMS, QQYHRLPLS [En_HC]: 26 nM (6 of 6 replicates).

The measurements come from Li et al. 2023 (doi:10.1038/s41467-023-39022-2) through the FLAb antibody collection.